{"sequences": {"note": "Sequences of proteins named here, by UniProt entry; tags and fusion partners are left off.", "UniProt O35433, whole entry": "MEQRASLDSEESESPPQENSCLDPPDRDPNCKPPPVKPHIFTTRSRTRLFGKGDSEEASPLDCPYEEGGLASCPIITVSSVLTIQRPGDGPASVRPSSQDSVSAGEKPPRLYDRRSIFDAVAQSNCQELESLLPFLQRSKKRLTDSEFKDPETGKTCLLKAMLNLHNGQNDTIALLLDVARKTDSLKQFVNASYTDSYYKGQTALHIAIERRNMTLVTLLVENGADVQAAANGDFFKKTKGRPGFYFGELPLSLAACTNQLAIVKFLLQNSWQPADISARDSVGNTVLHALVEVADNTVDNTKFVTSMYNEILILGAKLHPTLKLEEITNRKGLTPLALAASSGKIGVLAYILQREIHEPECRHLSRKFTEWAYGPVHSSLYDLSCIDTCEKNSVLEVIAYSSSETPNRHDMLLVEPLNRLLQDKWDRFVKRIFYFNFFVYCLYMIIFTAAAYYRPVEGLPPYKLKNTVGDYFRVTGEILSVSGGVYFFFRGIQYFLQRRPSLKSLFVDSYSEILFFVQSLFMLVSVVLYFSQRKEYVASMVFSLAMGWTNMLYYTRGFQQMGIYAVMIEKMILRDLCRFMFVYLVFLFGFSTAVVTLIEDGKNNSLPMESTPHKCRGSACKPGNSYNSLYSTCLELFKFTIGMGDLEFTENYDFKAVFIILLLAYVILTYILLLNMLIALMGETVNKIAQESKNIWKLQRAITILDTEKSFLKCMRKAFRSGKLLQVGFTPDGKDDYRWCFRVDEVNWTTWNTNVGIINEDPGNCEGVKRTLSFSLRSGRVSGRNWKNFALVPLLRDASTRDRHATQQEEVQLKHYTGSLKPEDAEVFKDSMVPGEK"}, "source": "patent US20050288369A1", "about": "“Novel n-hydroxy thiourea, urea and amide compounds and the pharmaceutical compositions comprising the same” (priority 2002, published 2005)", "molecular_target": "T1, vanilloid receptor-1 (VR1) (Rattus norvegicus, UniProt O35433)", "T1 construct": "expressed in transfected cells; host or cells: Chinese Hamster Ovary cells (CHO, ATCC CCL-61), Tet-off inducible expression", "test": "[3H]RTX competition binding assay, VR1-expressing CHO cells", "conditions": "displacement of bound [3H]RTX; mean±SEM, 3 experiments", "experimental": "The binding affinity activity of the target compounds for vanilloid receptor-1 was measured by an in vitro receptor binding affinity assay. In the receptor binding assay, the compounds were evaluated for their ability to displace bound [^3H]RTX from the receptor. The results are expressed in terms of Ki values (mean±SEM, 3 experiments) which represent the concentration of the non-radioactive ligand that displaces half of the bound labeled RTX.\nThe VR receptor binding affinity activity of the inventive compounds was measured by using Chinese Hamster Ovary (CHO, ATCC, No. CCL-61) cell whose cDNA of VR1 (pUHG102 VR1 plasmid) was transfected, which can control the expression of VR1 according to the presence of tetracycline and Tetracycline on/off system (pTet off regulatory plasmid, Clontech. Inc., USA) that the expression of VR1 is induced by removing tetracycline from the medium. […]\nExperiments were designed to assess inhibition of specific [^3H]RTX binding to membranes by non-radioactive compounds. […] Non-specific binding assay was measured after mixing 100 nM of non-radioactive RTX thereto. […] The tips of tube containing above precipitate was cut off and the amount of bound radioisotope was determined by scintillation counter (LS6500, Beckman-Coulter, USA). The measurement of binding was determined in triplicate in each experiment, and each experiment was repeated at least two times. […]", "data": [{"compound": "CC(C)(C)c1ccc(CN(O)C(=S)NCc2ccc(NS(C)(=O)=O)c([N+](=O)[O-])c2)cc1", "note": "[Compound 32, N-(4-tert-butylbenzyl)-N-hydroxy-N-[4-(methylsulfonylamino)-3-nitrobenzyl]thiourea]", "values": [{"measurement": "Ki", "value": 1330, "unit": "nM"}]}]}
